Each structure is given as a SMILES string. Calls of active or inactive are those of the source. The calls are words filed in the database; no cut-off is given here.

Chains of the proteins cited; added tags and fusions are not shown.
UniProt P41594, whole entry, looked up: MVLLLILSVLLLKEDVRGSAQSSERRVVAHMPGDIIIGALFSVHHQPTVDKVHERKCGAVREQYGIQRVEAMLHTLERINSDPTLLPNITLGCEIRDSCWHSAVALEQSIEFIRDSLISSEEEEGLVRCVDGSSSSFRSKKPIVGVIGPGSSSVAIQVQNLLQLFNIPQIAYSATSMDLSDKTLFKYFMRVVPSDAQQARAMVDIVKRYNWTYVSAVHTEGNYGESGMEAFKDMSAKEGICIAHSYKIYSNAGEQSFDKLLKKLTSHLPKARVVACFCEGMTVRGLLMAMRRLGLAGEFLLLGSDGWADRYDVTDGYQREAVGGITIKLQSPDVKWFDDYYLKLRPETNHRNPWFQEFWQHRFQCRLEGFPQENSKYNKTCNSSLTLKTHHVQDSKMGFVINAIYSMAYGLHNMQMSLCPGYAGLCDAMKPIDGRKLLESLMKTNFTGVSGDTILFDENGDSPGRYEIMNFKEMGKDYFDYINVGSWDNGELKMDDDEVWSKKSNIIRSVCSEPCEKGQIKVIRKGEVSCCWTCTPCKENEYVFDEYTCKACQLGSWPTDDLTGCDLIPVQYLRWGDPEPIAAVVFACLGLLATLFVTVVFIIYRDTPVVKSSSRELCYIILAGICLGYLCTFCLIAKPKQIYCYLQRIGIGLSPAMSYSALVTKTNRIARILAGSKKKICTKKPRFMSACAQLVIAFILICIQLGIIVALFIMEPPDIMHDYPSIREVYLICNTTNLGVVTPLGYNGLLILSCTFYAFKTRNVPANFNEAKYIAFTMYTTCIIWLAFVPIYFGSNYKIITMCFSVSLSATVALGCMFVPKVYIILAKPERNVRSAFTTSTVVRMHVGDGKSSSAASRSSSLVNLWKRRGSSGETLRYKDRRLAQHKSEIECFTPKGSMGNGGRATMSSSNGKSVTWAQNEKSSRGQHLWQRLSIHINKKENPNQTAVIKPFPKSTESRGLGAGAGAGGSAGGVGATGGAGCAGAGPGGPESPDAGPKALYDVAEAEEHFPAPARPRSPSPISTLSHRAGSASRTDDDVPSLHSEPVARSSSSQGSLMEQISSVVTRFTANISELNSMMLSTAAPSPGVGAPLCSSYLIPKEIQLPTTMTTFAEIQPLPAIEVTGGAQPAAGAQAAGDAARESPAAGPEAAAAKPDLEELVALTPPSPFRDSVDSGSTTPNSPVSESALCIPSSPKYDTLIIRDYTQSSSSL

Assay [1] concerns the target T1, Metabotropic glutamate receptor 5 (Homo sapiens, UniProt P41594). Nature of the assay: Positive allosteric modulation of human mGluR5 expressed in HEK293 cells assessed as increase of L-glutamate-induced calcium mobilization at 10 uM by FLIPR assay relative to L-glutamate. In kind it is functional, cell-based. For orientation: Calcium flux is commonly read through the fluorescence of an indicator in the cells.

Assay [2] deals with T1, Metabotropic glutamate receptor 5. Nature of the assay: Negative allosteric modulation of human mGluR5 expressed in HEK293 cells assessed as inhibition of L-glutamate-induced calcium mobilization at 10 uM by FLIPR assay relative to control. In kind it is functional, cell-based.

`CN1CCc2nc(C#Cc3cccnc3)ccc2C1=O`: the Emax entry in assay [1] is “inactive”. In addition, the Imax entry in assay [2] was “inactive”.
As for `CC(C)N1CCc2nc(C#Cc3cccnc3)ccc2C1=O`, the Emax result in assay [1] is “inactive”. The Imax result in assay [2] is “inactive”.
